Chains of the proteins cited; added tags and fusions are not shown. Lines headed by an entry give the natural chain unless they say otherwise; changes in a name come on top.
UniProt Q9GZV3, whole entry, stated change not applied: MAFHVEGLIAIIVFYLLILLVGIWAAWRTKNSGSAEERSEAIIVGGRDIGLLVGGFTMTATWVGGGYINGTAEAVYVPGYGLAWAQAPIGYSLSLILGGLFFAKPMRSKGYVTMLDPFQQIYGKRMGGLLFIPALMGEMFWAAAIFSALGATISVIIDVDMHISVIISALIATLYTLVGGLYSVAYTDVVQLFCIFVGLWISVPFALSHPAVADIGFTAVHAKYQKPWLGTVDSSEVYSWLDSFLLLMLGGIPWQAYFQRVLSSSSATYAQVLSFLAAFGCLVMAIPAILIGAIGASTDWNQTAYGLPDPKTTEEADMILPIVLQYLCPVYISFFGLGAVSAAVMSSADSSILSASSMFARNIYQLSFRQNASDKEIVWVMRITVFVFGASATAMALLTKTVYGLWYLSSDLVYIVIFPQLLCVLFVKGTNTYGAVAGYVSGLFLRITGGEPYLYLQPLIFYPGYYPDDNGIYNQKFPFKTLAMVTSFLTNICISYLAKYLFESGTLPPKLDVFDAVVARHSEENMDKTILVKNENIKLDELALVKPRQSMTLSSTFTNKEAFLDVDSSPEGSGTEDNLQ

The list shows a part of the results, in another mix than the full data. Some of these compounds have results that are not shown, active ones among them. Active and inactive are the calls of the source.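 Rule for the calls: active = initial fluorescence not abnormally high and integrated response B-score, plate-corrected, over 3 SD above library mean; inactive = the rest.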
The molecules below were run against High affinity choline transporter 1 (Homo sapiens) (UniProt Q9GZV3) (assay: allosteric activators of human choline transporter – cell-based, membrane potential dye, choline EC20, primary screen (AID 488977)). Settings: CHT-expressing cells, at 10 µM, LV-AA mutant CHT in HEK293 cells.
For `CCCCC(CC)C(=O)N1CCN(C/C=C/c2ccccc2)CC1` (stereo unspecified), the outcome was “inactive”.

From PubChem BioAssay AID488977 (Johns Hopkins Ion Channel Center, 2010)
